Assay results published in patent US20040210041A1.

Protein sequences, listed by entry. Tags and fused reporters are not part of them. Residues count along the entry.
UniProt P35968, 20-1356: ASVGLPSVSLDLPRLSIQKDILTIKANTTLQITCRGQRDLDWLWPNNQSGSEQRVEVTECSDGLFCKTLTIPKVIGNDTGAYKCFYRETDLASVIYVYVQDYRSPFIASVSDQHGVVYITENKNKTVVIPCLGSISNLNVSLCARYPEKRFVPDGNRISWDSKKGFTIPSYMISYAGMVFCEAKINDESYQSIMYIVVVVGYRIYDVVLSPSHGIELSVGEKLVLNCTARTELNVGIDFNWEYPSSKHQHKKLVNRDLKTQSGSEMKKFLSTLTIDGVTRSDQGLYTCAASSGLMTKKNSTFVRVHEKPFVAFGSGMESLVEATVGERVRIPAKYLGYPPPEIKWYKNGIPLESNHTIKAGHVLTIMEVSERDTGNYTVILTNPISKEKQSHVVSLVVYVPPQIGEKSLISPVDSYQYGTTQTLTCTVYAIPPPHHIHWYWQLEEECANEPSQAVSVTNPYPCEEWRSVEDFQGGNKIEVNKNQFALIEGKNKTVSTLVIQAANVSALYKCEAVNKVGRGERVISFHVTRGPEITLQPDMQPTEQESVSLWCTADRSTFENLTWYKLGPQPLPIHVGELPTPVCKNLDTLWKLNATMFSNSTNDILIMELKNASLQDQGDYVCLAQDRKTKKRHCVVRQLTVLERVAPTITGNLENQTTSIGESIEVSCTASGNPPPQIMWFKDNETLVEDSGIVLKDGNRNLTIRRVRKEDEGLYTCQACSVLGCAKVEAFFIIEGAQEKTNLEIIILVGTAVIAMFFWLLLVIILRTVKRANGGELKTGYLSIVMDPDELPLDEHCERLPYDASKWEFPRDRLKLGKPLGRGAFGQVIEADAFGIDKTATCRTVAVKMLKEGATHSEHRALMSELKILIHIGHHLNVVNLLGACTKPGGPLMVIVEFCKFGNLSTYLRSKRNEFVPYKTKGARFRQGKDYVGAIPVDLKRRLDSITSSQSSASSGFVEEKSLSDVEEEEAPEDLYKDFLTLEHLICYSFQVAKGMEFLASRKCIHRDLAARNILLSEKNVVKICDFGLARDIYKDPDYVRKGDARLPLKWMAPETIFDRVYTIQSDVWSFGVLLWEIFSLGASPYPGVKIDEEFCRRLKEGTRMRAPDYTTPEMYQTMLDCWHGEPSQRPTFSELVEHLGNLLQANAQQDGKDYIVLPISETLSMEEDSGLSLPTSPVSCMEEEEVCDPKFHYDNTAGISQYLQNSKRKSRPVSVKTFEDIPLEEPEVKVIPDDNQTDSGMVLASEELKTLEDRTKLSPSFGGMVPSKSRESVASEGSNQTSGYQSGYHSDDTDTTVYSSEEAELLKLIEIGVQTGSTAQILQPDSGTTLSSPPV

What was measured:
[1] = biological target: KDR (VEGFR-2), full-length receptor on cells (human), P35968; test: saturation binding, peptide/neutravidin-HRP complex on KDR-transfected 293H cells, mock subtracted; conditions: remark: other sources report otherwise
[2] = biological target: KDR (VEGFR-2), full-length receptor on cells (human) (UniProt P35968); test: saturation binding, peptide/neutravidin-HRP complex on KDR-transfected 293H cells

Kd [1]: 14.9 nM
Binder: AGPKWCEEDWYYCMITGTGGGK (here or on the partner: Ac-; C-terminal Lys(Biotin-JJ)-NH2; disulfide) [P5-XB/neutravidin HRP complex (tetrameric)]

Kd [2]: 3.02 nM
B1: P12-F-XB (neutravidin HRP complex) (peptide)
peptide: AGPTWCEDDWYYCWLFGTK
modifications: Ac-; J (8-amino-3,6-dioxaoctanoyl) between Thr18 and the C-terminal Lys; Lys(Biotin-JJ)-NH2

Each block holds one binder with its values, some of them ahead of it.
